Results on one compound are retold here after paper PMC11088557 (Clinical Drug Investigation, 2024).

For the series the following is noted: viloxazine ER 900 mg qd, steady state.

Consider `CCOc1ccccc1OCC1CNCCO1` (stereo not drawn) [viloxazine], for which the “increase in viloxazine exposure in CYP2D6 PMs relative to EMs” value is reported as < 1.5 fold. Also, under “CYP2D6 PMs vs EMs”, the “AUC24 ratio PMs/EMs (geometric means)” value is on record as 125.66 (105.36–149.87) % and the “Cmax ratio PMs/EMs (geometric means)” value is listed as 120.70 (102.33–142.37) %.
